The values that follow come from ChEMBL document CHEMBL5528013 (Eur J Med Chem, 2024).

Test [1] deals with MOLM-14. Nature of the test: Antiproliferative activity against human MOLM-14 cells harboring FLT3-D835Y mutant assessed as inhibition of cell growth incubated for 72 hrs by resazurin dye based assay. It counts as functional. The following applies: MOLM-14, 72 h. The gist of the method:
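Logarithmic-phase cells were seeded at 5000 per well and treated 24 h later, in triplicate, with various concentrations for 72 h. MOLM14 lines were grown in RPMI with 10 % FBS, and other lines per provider instructions, all at 37 °C and 5 % CO2. Resazurin was then added for 4–6 h and fluorescence read. GI50 was taken from percent growth versus DMSO control, fitted with a variable-slope normalized-response model; at least three runs.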

The subject of test [2] is MOLM-14. Format: functional, cell-based. The conditions noted are these: Homo sapiens, MOLM-14, 72 h.

Consider `CCc1nc(C(N)=O)c(Nc2ccc(N3CCC(N4CCN(C)CC4)CC3)c(OC)c2)nc1NC1CCOCC1` [GILTERITINIB], for which the figures for the IC50 in the test with MOLM-14 [1] and with MOLM-14 [2] were 7.83 nM and 58.8 nM, respectively. As to `COc1cc2/c(=N/c3ccc(Br)cc3F)nc[nH]c2cc1OCC1CCN(C)CC1` [VANDETANIB], the IC50 in the test on MOLM-14 [1] was 2800 nM.
